Results reported in ChEMBL document CHEMBL1136167, “Prediction of hERG potassium channel affinity by traditional and hologram qSAR methods” (Bioorg Med Chem Lett, 2003).

By UniProt entry, the sequences of proteins in these tests, tags left out. Where a name states a change or a piece, a line headed by the entry shows the natural chain unless it says otherwise.
UniProt Q12809: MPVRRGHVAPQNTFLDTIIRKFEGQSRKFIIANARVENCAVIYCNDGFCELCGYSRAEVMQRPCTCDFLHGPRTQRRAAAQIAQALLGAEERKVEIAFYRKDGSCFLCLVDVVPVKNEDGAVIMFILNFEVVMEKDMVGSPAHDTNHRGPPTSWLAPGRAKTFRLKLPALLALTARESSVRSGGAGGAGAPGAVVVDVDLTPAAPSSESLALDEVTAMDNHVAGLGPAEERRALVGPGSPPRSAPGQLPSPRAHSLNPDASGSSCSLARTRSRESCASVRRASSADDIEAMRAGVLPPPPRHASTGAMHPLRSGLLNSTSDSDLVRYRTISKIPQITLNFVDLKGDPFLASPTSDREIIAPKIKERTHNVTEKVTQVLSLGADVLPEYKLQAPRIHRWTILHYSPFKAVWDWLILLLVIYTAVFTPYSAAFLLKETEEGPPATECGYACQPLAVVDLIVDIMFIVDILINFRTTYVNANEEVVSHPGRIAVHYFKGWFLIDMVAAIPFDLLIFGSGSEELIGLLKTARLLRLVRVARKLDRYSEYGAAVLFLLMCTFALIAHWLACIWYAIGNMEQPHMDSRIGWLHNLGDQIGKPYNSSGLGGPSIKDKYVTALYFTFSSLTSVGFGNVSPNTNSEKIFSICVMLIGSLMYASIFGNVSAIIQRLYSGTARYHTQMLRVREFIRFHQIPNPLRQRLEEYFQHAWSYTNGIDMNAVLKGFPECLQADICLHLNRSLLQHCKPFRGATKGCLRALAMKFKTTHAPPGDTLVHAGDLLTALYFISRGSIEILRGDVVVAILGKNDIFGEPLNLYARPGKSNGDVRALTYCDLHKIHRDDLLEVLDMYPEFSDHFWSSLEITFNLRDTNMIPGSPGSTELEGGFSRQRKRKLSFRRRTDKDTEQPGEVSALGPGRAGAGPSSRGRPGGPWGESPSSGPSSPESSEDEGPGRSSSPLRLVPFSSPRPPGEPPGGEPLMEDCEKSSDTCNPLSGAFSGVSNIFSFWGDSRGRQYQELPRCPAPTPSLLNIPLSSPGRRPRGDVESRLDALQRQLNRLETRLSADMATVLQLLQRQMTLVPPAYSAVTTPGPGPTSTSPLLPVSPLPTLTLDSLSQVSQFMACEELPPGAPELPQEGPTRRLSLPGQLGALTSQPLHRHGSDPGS

Target: Voltage-gated inwardly rectifying potassium channel KCNH2 (Homo sapiens, UniProt Q12809)

| SMILES | IC50 [nM] |
| --- | --- |
| OC(c1cc(C(F)(F)F)nc2c(C(F)(F)F)cccc12)C1CCCCN1 (stereo not given) [MEFLOQUINE HYDROCHLORIDE] | 5620 |
| CN1CCN(CCCCN2C(=O)CN(/N=C/c3ccc(-c4ccc(Cl)cc4)o3)C2=O)CC1 [AZIMILIDE] | 1410 |
| CNCCCN1c2ccccc2CCc2ccccc21 [DESIPRAMINE] | 1510 |
| C1CCC(C(CC2CCCCN2)C2CCCCC2)CC1 (stereo not given) [PERHEXILINE] | 7760 |
| CN1CCCCC1CCN1c2ccccc2Sc2ccc([S+](C)[O-])cc21 (stereo not given) [MESORIDAZINE] | 324 |

Structures can show the parent of a compound that is named as a salt.
